For data set [1], the system named is S. typhimurium TA1535/pSK1002. The procedure:
(§1) The umu-test detects the induction of bacterial DNA-damage response, the SOS system, in the strain S. typhimurium TA1535/pSK1002. The test strain carries pSK1002 plasmid, which contains the fusion of umuC, encoding one of SOS response proteins, and lacZ genes. The expression of β-galactosidase protein is fully controlled by umuC gene.
(§2) In the present study, the umu-test was performed in the micro-plate format according to the ISO guideline. The β-galactosidase activity was determined by the degree of ONPG cleavage measured as sample absorbance at 420 nm. The extent of SOS system activation was presented as induction ratio (IR), calculated as the ratio of β-galactosidase activity in the presence of the tested compound(s) to that of negative control. […] The optical density at 600 nm was used to describe the bacteria growth. […] Both measurements were performed with Asys UVM340 Hightech microplate spectrophotometer.
The S9 fraction from rat liver was used for metabolic activation of the tested compounds and the model mutagen. […] The P450 cytochrome level in the isolate was evaluated and the aliquots were stored at −80 °C. The S9 reaction mix was prepared as described by Maron and Ames.
(§3) In order to the establish anti-genotoxic potential of tested compounds, their effects on the action of two model genotoxic agents, 4NQO without the metabolic activation with rat liver S9 fraction and 2AA with metabolic activation, were evaluated. […] Subsequently, the modulation of 4NQO and 2AA genotoxicity by the isoflavones, the elements and their mixtures in previously used concentrations was investigated.

Data set [2] deals with S. typhimurium TA1535/pSK1002. As to conditions: −S9, genistein 10 μM and/or mineral added (Table 2), NQO line = genotoxin alone. As to the method: as §1, §2, §3
The mark [3] stands for this setting: 2AA 5 mg/L, +S9, genistein 10 μM and/or mineral added (Table 5), 2AA line = genotoxin alone.
The mark [4] stands for this setting: +S9, isoflavone 10 μM, minerals Zn 0.5, Se 0.03, Cu 0.5, Fe 1.5, Ca 40 μg/mL.
The mark [5] stands for this setting: −S9, isoflavone 10 μM, minerals Zn 0.5, Se 0.03, Cu 0.5, Fe 1.5, Ca 40 μg/mL.
Setting [6] is: 2AA 1 mg/L, +S9, genistein 10 μM and/or mineral added (Table 5), 2AA line = genotoxin alone.

Each structure is given as a SMILES string. Where two headings read alike, the source gives them in different places.

For `O=S(=O)([O-])[O-].[Cu+2]` [Cu, copper(II)/cupric sulphate], the “G (growth ratio)” value in data set [1] (setting [3]) is 1.16 ± 0.14; in data set [1] (setting [4]), 1.07 ± 0.11; in data set [1] (setting [5]), 1.09 ± 0.12.
`O=S(=O)([O-])[O-].[Fe+2]` [Fe, iron(II) sulphate]: the figures for the “G (growth ratio)” value in data set [1] (setting [3]) and in data set [2] (4NQO […]) were 1.07 ± 0.07 and 1.08 ± 0.10, respectively.
Regarding `O=S(=O)([O-])[O-].[Zn+2]` [Zn, Zinc sulphate], the “G (growth ratio)” value in data set [1] (setting [6]) came to 1.03 ± 0.08; in data set [1] (setting [3]), 1.08 ± 0.05; in data set [1] (setting [4]), 1.04 ± 0.05; in data set [1] (setting [5]), 1.09 ± 0.13; in data set [2] (4NQO 0.05 mg/L), 1.01 ± 0.11; in data set [2] (4NQO […]), 1.01 ± 0.11.
Turning to `O=c1c(-c2ccc(O)cc2)coc2cc(O)cc(O)c12` [gen, genistein], the “G (growth ratio)” value came out at 1.16 ± 0.17 in data set [1] (setting [6]), 1.16 ± 0.17 in data set [1] (setting [4]) and 1.01 ± 0.12 in data set [2] (4NQO 0.05 mg/L).
